# Laboratory results: patent US20190374526A1, “Substituted Heterocyclic Compounds as Inhibitors of PRDM9” (Merck Sharp & Dohme Corp., priority 2018, published 2019)
# Amino acid sequences for entries named in this document (tags omitted). Residues count along the entry.
# UniProt Q9NQV7, 195-385 limits assumed: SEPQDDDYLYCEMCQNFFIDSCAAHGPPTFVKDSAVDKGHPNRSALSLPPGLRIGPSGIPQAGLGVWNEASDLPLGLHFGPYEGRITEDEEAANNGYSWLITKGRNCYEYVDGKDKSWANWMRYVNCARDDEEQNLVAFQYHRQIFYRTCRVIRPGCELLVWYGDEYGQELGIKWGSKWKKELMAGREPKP
# pIC50: −log10 of the molar value.
# Molecular target: hPRDM9 (amino acids 195-385) (Homo sapiens, UniProt Q9NQV7)
# Assay: PRDM9 biochemical assay (radiometric, 3[H] methyl transfer from SAM to biotinylated histone H3 peptide)
# Settings: read-out: PRDM9 IC50; 1 nM hPRDM9, 1 μM biotinylated H3(1-25)K4 peptide, 5 μM 3[H]-SAM, 55 μM un-labeled SAM, 25° C., 30 minutes
# Protocol: The PRDM9 biochemical assay was carried out using a radiometric format involving the transfer of ^3[H] methyl group from S-adenosyl methionine (SAM) to a biotinylated histone H3 peptide (H3(1-25)K4). 10 mM compounds in DMSO were diluted 20 fold in assay buffer (10 mM Tris-HCl, pH 8.5, 10 mM DTT, and 0.01% Triton X-100) before adding […] to a well in a 384 well polypropylene microplate plate and adding 8 μl of reaction mix (1.25 nM hPRDM9 (amino acids 195-385), 1.25 μM biotinylated H3 peptide in assay buffer). The ^3[H]-SAM and cold SAM stock solutions were diluted to 50 μM and 550 μM respectively in assay buffer before aliquoting 1 μl of 50 μM ^3[H]-SAM, 550 μM SAM into each well to initiate the reaction. The assay was performed at 25° C. at the final concentrations of 1 nM hPRDM9, 1 μM peptide, 5 μM ^3[H]-SAM, and 55 μM un-labeled SAM in assay buffer. The reaction was quenched after 30 minutes by adding 25 μl 7.5 M Guanidine-HCl. Quenched reactions were transferred to streptavidin coated Flashplates, diluted two fold in assay buffer, incubated for 1 hour, and read on a Perkin Elmer Topcount instrument. Compound activity was expressed relative to activity of 0.5% (v/v) DMSO treated samples and fit to a four parameter logistic equation to determine IC50 values.
row,pIC50,Compound
1,5.81,Cc1cc(NC[C@@H]2CN(c3nc(-c4cc(Cl)cc(Cl)c4)no3)CCO2)ccn1
2,4.37,Cc1cc(N2CCC(C)(CNc3nc(-c4cc(Cl)cc(Cl)c4)no3)C2)ccn1 (centres unmarked)
3,4.74,Cc1cc(N2CCCCC2CCNc2nc(-c3cc(Cl)cc(Cl)c3)no2)ccn1 (centres unmarked)
4,4.43,Cc1cc(NCCC(C)Nc2nc(-c3cc(Cl)cc(Cl)c3)no2)ccn1 (centres unmarked)
5,4.68,Cc1cc(NCCC2CCCCN2c2nc(-c3cc(Cl)cc(Cl)c3)no2)ccn1 (centres unmarked)
6,5.10,Cc1cc(NCC2CCN(c3nc(-c4cc(Cl)cc(Cl)c4)no3)C2)ccn1 (centres unmarked)
7,4.77,Cc1cc(N2CCC3CN(c4nc(-c5cc(Cl)cc(Cl)c5)no4)CC32)ccn1 (centres unmarked) [Compound 39]
8,6.36,Cc1cc(N2CCC(C)(CNc3nc(-c4cc(Cl)cc(Cl)c4)no3)CC2)ccn1
9,4.36,Cc1cc(NCCC2CN(c3nc(-c4cc(Cl)cc(Cl)c4)no3)C2)ccn1
10,≤ 4.30,Cc1cc(N[C@@H]2CCCN(c3nc(-c4cc(Cl)cc(Cl)c4)no3)C2)ccn1
11,6.46,Cc1cc(N2C[C@H]3CCN(c4nc(-c5cc(Cl)cc(Cl)c5)no4)CC[C@H]3C2)ccn1 (relative stereo)
12,4.95,Cc1cc(NC2CC3OC2CCC3Nc2nc(-c3cc(Cl)cc(Cl)c3)no2)ccn1 (centres unmarked)
13,6.43,Cc1cc(NCCC2CCN(c3nc(-c4cc(Cl)cc(Cl)c4)no3)CC2)ccn1
14,5.36,Cc1cc(N[C@H]2CCN(c3nc(-c4cc(Cl)cc(Cl)c4)no3)C2)ccn1
15,4.97,Cc1cc(N[C@@H]2C[C@H](C)N(c3nc(-c4cc(Cl)cc(Cl)c4)no3)C2)ccn1
16,4.55,Cc1cc(N2CC3CCN(c4nc(-c5cc(Cl)cc(Cl)c5)no4)CC3C2)ccn1 (centres unmarked)
17,4.59,Cc1cc(N2CCC3C(C2)CN3c2nc(-c3cc(Cl)cc(Cl)c3)no2)ccn1 (centres unmarked)
18,4.86,Cc1cc(NC2CCCCN(c3nc(-c4cc(Cl)cc(Cl)c4)no3)C2)ccn1 (centres unmarked)
19,5.62,Cc1cc(N2C[C@H]3CCN(c4nc(-c5cc(Cl)cc(Cl)c5)no4)[C@H]3C2)ccn1
20,4.75,Cc1cc(NCC2COCCN(c3nc(-c4cc(Cl)cc(Cl)c4)no3)C2)ccn1 (centres unmarked)
21,5.25,Cc1cc(NC2CCN(c3nc(-c4cc(Cl)cc(Cl)c4)no3)C2)ccn1 (centres unmarked)
22,6.53,Cc1cc(N2C3CCC2CC2(CCN(c4nc(-c5cc(Cl)cc(Cl)c5)no4)C2)C3)ccn1 (centres unmarked)

row,Compound,pIC50
1,COc1cc(OC)cc(-c2noc(N3CCC4(CC5CCC(C4)N5c4ccnc(C)c4)C3)n2)c1 (centres unmarked) [Compound 158],5.58
